This is an account of results in US10011599B2 (priority 2013, dated 2018).

In one experiment the test system is A375 cells. The experiment can be described thus: cells. As to conditions: Homo sapiens, A-375, 72 h, read-out: A375 XTT IC50 uM. For orientation: Formazan colour is commonly taken as a measure of viable cells.
In experiment [1] the test system is phospho-ERK1/2 in A375 cells. Kind of experiment: cells. The note with it: Homo sapiens, A-375, 3 h, read-out: A375 ICW IC50.

For `CC1(n2cnc3cnc4cc(F)c(-c5ccc(Oc6ncccn6)cc5Cl)cc4c32)CCN(C(=O)CO)CC1` [Example 33, 1-(4-(8-(2-chloro-4-(pyrimidin-2-yloxy)phenyl)-7-fluoro-1H-imidazo[4,5-c]quinolin-1-yl)-4-methylpiperidin-1-yl)-2-hydroxyethanone], the IC50 was 0.054 µM with A375 cells and 60 nM in experiment [1].

In the case of `Cc1ccnc(Oc2ccc(-c3cc4c(cc3F)ncc3nc(C)n(C5CCN(C(=O)[C@H](C)O)CC5)c34)c(Cl)c2)n1` [Example 35, (S)-1-(4-(8-(2-chloro-4-((4-methylpyrimidin-2-yl)oxy)phenyl)-7-fluoro-2-methyl-1H-imidazo[4,5-c]quinolin-1-yl)piperidin-1-yl)-2-hydroxypropan-1-one], the results for the IC50 (in the experiment on A375 cells; in experiment [1]) were 0.026 µM and 18 nM, respectively.

Consider `Cc1ccnc(Oc2ccc(-c3cc4c(cc3F)ncc3nc(C)n(C5CCN(CCO)CC5)c34)c(Cl)c2)n1` [Example 36, 2-(4-(8-(2-chloro-4-((4-methylpyrimidin-2-yl)oxy)phenyl)-7-fluoro-2-methyl-1H-imidazo[4,5-c]quinolin-1-yl)piperidin-1-yl)ethanol], for which the IC50 came out at 0.091 µM with A375 cells and 44 nM in experiment [1].

On to `COc1cc(Oc2nccc(C)n2)ccc1-c1cc2c(cc1F)ncc1ncn(C3(C)CCN(C(N)=O)CC3)c12` [Example 37, 4-(7-fluoro-8-(2-methoxy-4-((4-methylpyrimidin-2-yl)oxy)phenyl)-1H-imidazo[4,5-c]quinolin-1-yl)-4-methylpiperidine-1-carboxamide], for which the IC50 was 0.008 µM in the experiment on A375 cells and 9 nM in experiment [1].

As for `COc1cc(Oc2ncccn2)ccc1-c1cc2c(cc1F)ncc1ncn(C3(C)CCN(C(N)=O)CC3)c12` [Example 38, 4-(7-fluoro-8-(2-methoxy-4-(pyrimidin-2-yloxy)phenyl)-1H-imidazo[4,5-c]quinolin-1-yl)-4-methylpiperidine-1-carboxamide], the IC50 in the experiment with A375 cells is 0.119 µM; in experiment [1] it was 63 nM.

Take `Cc1ccnc(Oc2ccc(-c3cc4c(cc3F)ncc3ncn(C5(CO)CCN(C(=O)CO)CC5)c34)c(Cl)c2)n1` [Example 41, 1-(4-(8-(2-chloro-4-((4-methylpyrimidin-2-yl)oxy)phenyl)-7-fluoro-1H-imidazo[4,5-c]quinolin-1-yl)-4-(hydroxymethyl)piperidin-1-yl)-2-hydroxyethanone]: the IC50 in the experiment with A375 cells was found to be 2.8 µM; in experiment [1] it was 620 nM.

For `Cc1nc2cnc3cc(F)c(-c4ccc(Oc5cccc(CO)n5)cc4Cl)cc3c2n1C1CCN(C(=O)CO)CC1` [Example 44, 1-(4-(8-(2-chloro-4-((6-(hydroxymethyl)pyridin-2-yl)oxy)phenyl)-7-fluoro-2-methyl-1H-imidazo[4,5-c]quinolin-1-yl)piperidin-1-yl)-2-hydroxyethanone], the IC50 in the experiment with A375 cells turned out to be 0.011 µM; in experiment [1] it was 26 nM.

Regarding `Cc1nc2cnc3cc(F)c(-c4ccc(Oc5nccc(F)n5)cc4Cl)cc3c2n1C1CCN(C(=O)CO)CC1` [Example 46, 1-(4-(8-(2-chloro-4-((4-fluoropyrimidin-2-yl)oxy)phenyl)-7-fluoro-2-methyl-1H-imidazo[4,5-c]quinolin-1-yl)piperidin-1-yl)-2-hydroxyethanone], the IC50 in the experiment on A375 cells amounted to 2.63 µM; in experiment [1] it was 206 nM.

With `Cc1nc2cnc3cc(F)c(-c4ccc(Oc5cccc(F)n5)cc4Cl)cc3c2n1C1CCN(C(=O)CO)CC1` [Example 47, 1-(4-(8-(2-chloro-4-((6-fluoropyridin-2-yl)oxy)phenyl)-7-fluoro-2-methyl-1H-imidazo[4,5-c]quinolin-1-yl)piperidin-1-yl)-2-hydroxyethanone], the results for the IC50 (with A375 cells; in experiment [1]) were 0.011 µM and 16 nM, respectively.

`Cc1nc(Oc2ccc(-c3cc4c(cc3F)ncc3nc(C)n(C5CCN(C(=O)CO)CC5)c34)c(Cl)c2)ncc1F` [Example 48, 1-(4-(8-(2-chloro-4-((5-fluoro-4-methylpyrimidin-2-yl)oxy)phenyl)-7-fluoro-2-methyl-1H-imidazo[4,5-c]quinolin-1-yl)piperidin-1-yl)-2-hydroxyethanone]: the IC50 with A375 cells was found to be 0.025 µM; in experiment [1] it was 44 nM.

With `Cc1nc2cnc3cc(F)c(-c4ccc(Oc5nccc(C6CC6)n5)cc4Cl)cc3c2n1C1CCN(C(=O)CO)CC1` [Example 54, 1-(4-(8-(2-chloro-4-((4-cyclopropylpyrimidin-2-yl)oxy)phenyl)-7-fluoro-2-methyl-1H-imidazo[4,5-c]quinolin-1-yl)piperidin-1-yl)-2-hydroxyethanone], the IC50 in the experiment on A375 cells worked out at 0.025 µM; in experiment [1], 42 nM.

In the case of `Cc1ccnc(Oc2ccc(-c3cc4c(cc3F)ncc3nc(C)n([C@@H]5CCN(CC#N)C[C@H]5F)c34)c(Cl)c2)n1` [Example 57, 2-((3R,4R)-4-(8-(2-chloro-4-((4-methylpyrimidin-2-yl)oxy)phenyl)-7-fluoro-2-methyl-1H-imidazo[4,5-c]quinolin-1-yl)-3-fluoropiperidin-1-yl)acetonitrile], the results for the IC50 (in the experiment with A375 cells; in experiment [1]) were 0.041 µM and 89 nM, respectively.

With `Cc1ccnc(Oc2ccc(-c3cc4c(cc3F)ncc3nc(C)n([C@H]5CCN(CC#N)C[C@@H]5F)c34)c(Cl)c2)n1` [Example 58, 2-((3S,4S)-4-(8-(2-chloro-4-((4-methylpyrimidin-2-yl)oxy)phenyl)-7-fluoro-2-methyl-1H-imidazo[4,5-c]quinolin-1-yl)-3-fluoropiperidin-1-yl)acetonitrile], the IC50 was found to be 0.008 µM with A375 cells and 14 nM in experiment [1].

On to `Cc1cc(Oc2ccc(-c3cc4c(cc3F)ncc3nc(C)n(C5CCN(CC#N)CC5)c34)c(Cl)c2)nc(C#N)n1` [Example 59, 4-(3-chloro-4-(1-(1-(cyanomethyl)piperidin-4-yl)-7-fluoro-2-methyl-1H-imidazo[4,5-c]quinolin-8-yl)phenoxy)-6-methylpyrimidine-2-carbonitrile], for which the figures for the IC50 (in the experiment with A375 cells; in experiment [1]) were 1.6 µM and 609 nM, respectively.

In the case of `Cc1nc2cnc3cc(F)c(-c4ccc(Oc5cc(=O)n(C)cn5)cc4Cl)cc3c2n1C1CCN(CC#N)CC1` [Example 60, 2-(4-(8-(2-chloro-4-((1-methyl-6-oxo-1,6-dihydropyrimidin-4-yl)oxy)phenyl)-7-fluoro-2-methyl-1H-imidazo[4,5-c]quinolin-1-yl)piperidin-1-yl)acetonitrile], the IC50 with A375 cells was 1.71 µM; in experiment [1], 499 nM.

For `COc1cc(Oc2ncccn2)ccc1-c1cc2c(cc1F)ncc1nc(C)n([C@@H]3CCN(CC#N)C[C@H]3F)c12` [Example 61, 2-((3R,4R)-3-fluoro-4-(7-fluoro-8-(2-methoxy-4-(pyrimidin-2-yloxy)phenyl)-2-methyl-1H-imidazo[4,5-c]quinolin-1-yl)piperidin-1-yl)acetonitrile], the half-maximal inhibitory concentration (IC50) was 0.193 µM in the experiment with A375 cells and 168 nM in experiment [1].

As to `COc1cc(Oc2ncccn2)ccc1-c1cc2c(cc1F)ncc1nc(C)n([C@H]3CCN(CC#N)C[C@@H]3F)c12` [Example 62, 2-((3S,4S)-3-fluoro-4-(7-fluoro-8-(2-methoxy-4-(pyrimidin-2-yloxy)phenyl)-2-methyl-1H-imidazo[4,5-c]quinolin-1-yl)piperidin-1-yl)acetonitrile], the IC50 in the experiment with A375 cells was found to be 0.055 µM; in experiment [1], 49 nM.

In the case of `Cc1nc2cnc3cc(F)c(-c4ccc(Oc5cccn(C)c5=O)cc4Cl)cc3c2n1C1CCN(C(=O)CO)CC1` [Example 63, 3-(3-chloro-4-(7-fluoro-1-(1-(2-hydroxyacetyl)piperidin-4-yl)-2-methyl-1H-imidazo[4,5-c]quinolin-8-yl)phenoxy)-1-methylpyridin-2(1H)-one], the IC50 was 0.714 µM in the experiment with A375 cells and 245 nM in experiment [1].

Turning to `CC1(n2cnc3cnc4cc(F)c(-c5ccc(Oc6ncccn6)cc5Cl)cc4c32)CCN(C(N)=O)CC1` [Example 64, 4-(8-(2-chloro-4-(pyrimidin-2-yloxy)phenyl)-7-fluoro-1H-imidazo[4,5-c]quinolin-1-yl)-4-methylpiperidine-1-carboxamide], the figures for the IC50 (with A375 cells; in experiment [1]) were 0.016 µM and 7 nM, respectively.

With `Cc1ccnc(Oc2ccc(-c3cc4c(cc3F)ncc3ncn(C5(C)CCN(C(N)=O)CC5)c34)c(Cl)c2)n1` [Example 65, 4-(8-(2-chloro-4-((4-methylpyrimidin-2-yl)oxy)phenyl)-7-fluoro-1H-imidazo[4,5-c]quinolin-1-yl)-4-methylpiperidine-1-carboxamide], the IC50 with A375 cells came to 0.004 µM; in experiment [1] it was 5 nM.

For `Cc1ccnc(Oc2ccc(-c3cc4c(cc3F)ncc3nc(C)n([C@H]5CCN(C(=O)CO)C[C@@H]5F)c34)c(Cl)c2)n1` [Example 68, 1-((3S,4S)-4-(8-(2-chloro-4-((4-methylpyrimidin-2-yl)oxy)phenyl)-7-fluoro-2-methyl-1H-imidazo[4,5-c]quinolin-1-yl)-3-fluoropiperidin-1-yl)-2-hydroxyethanone], the values for the IC50 (with A375 cells; in experiment [1]) were 0.0025 µM and 7 nM, respectively.

Take `Cn1cnc(Oc2ccc(-c3cc4c(cc3F)ncc3ncn(C5(C)CCN(C(=O)CO)CC5)c34)c(Cl)c2)cc1=O` [Example 69, 6-(3-chloro-4-(7-fluoro-1-(1-(2-hydroxyacetyl)-4-methylpiperidin-4-yl)-1H-imidazo[4,5-c]quinolin-8-yl)phenoxy)-3-methylpyrimidin-4(3H)-one]: the IC50 with A375 cells was 0.708 µM; in experiment [1], 272 nM.

As for `Cc1ccnc(Oc2ccc(-c3cc4c(cc3F)ncc3nc(C)n(C5CCN(C(N)=O)CC5)c34)c(F)c2)n1` [Example 70, 4-(7-fluoro-8-(2-fluoro-4-((4-methylpyrimidin-2-yl)oxy)phenyl)-2-methyl-1H-imidazo[4,5-c]quinolin-1-yl)piperidine-1-carboxamide], the IC50 in the experiment with A375 cells turned out to be 0.06 µM; in experiment [1], 33 nM.

With `Cc1ccnc(Oc2ccc(-c3cc4c(cc3F)ncc3nc(C)n(C5CCN(C(=O)CO)CC5)c34)c(F)c2)n1` [Example 71, 1-(4-(7-fluoro-8-(2-fluoro-4-((4-methylpyrimidin-2-yl)oxy)phenyl)-2-methyl-1H-imidazo[4,5-c]quinolin-1-yl)piperidin-1-yl)-2-hydroxyethanone], the IC50 in the experiment on A375 cells was 0.144 µM; in experiment [1], 76 nM.

Broadly, the IC50 is the concentration at which inhibition is half-maximal.
